Laboratory results reported in PubChem BioAssay AID1347075 (National Center for Advancing Translational Sciences (NCATS), 2019).
This is a selection; strong and weak results do not stand in their true shares. Inconclusive results are not listed. Calls of active or inactive are those of the source. Calls come from the whole dose curve; as a rule, active = well fitted cell-killing curve with a large enough effect; inconclusive = small, poorly fitted or top-dose-only effect, or effect the other way; inactive = flat fitted curve, though single readings scatter.

Assay: qHTS assay for MDR1-selective chemotherapeutics: Primary screen using the parental adenocarcinoma cell KB-3-1; note: nearly all actives have a fitted effect of over 60% in size
Settings: KB-3-1 viability, CellTiter-Glo ATP luminescence, 72 h; at 46.1 µM (top of the series)
Excerpt: A prime difficulty in effectively treating cancer is the development of cellular resistance to multiple structurally unrelated anticancer drugs, a phenomenon known as multidrug resistance (MDR). […] Numerous strategies to overcome P-gp-mediated MDR have been explored, including the design of drugs that evade recognition and efflux, and development of inhibitors to block efflux and restore drug accumulation. […] An alternative approach is to exploit resistance by identifying drugs that target MDR cells over the non-resistant parental cells from which they were selected. […]
Our goal is to identify compounds that selectively kill P-gp-expressing MDR cells. […] This assay will be utilized to conduct a quantitative high-throughput screen (qHTS) in collaboration with the NIH Chemical Genomics Center to identify selective agents, and probe hits arising from the screen will be validated using secondary assays and characterized through a well-established follow-up research program. […]
Briefly, 5 microL of media containing either KB-3-1 cells (columns 1-2, 4-48) are dispensed into Greiner white, treated solid-bottom 1536-well assay plates (media-only control is added to column 3). […] CellTiter-Glo (2.5 µL/well) is then added, and the plates are read in a ViewLux reader (Perkin-Elmer, clear luminescence filter, 1 second exposure, 1x binning) following a 10 minute incubation. […]
% is set by controls: 0 for no effect and ±100 for the full control effect.

Structure (SMILES) | activity change, negative = cytotoxic
CCC(=O)N(c1ccccc1)C1(COC)CCN(CCc2cccs2)CC1 | inactive: -0.0491%
CCC(=O)N(c1ccccc1)C1(COC)CCN(CCn2nnn(CC)c2=O)CC1 | inactive: 0%
